Experimental data published in PMC12767058, “HERV‐K TM Subunit Elicits CD8^+ T Cell Anergy and Tumor Immune Evasion via Targeting CD3 Coreceptor ε in AML and PDAC” (Advanced Science, 2025).

Biological target: T1, purified recombinant nonglycosylated K-TM protein (human, UniProt Q69384 466-699)
T1 construct: K-TM subunit of HERV-K Env; One partner of the BLI was biotinylated and held on an SA chip; source: prokaryotic expression system, purified
T1 sequence: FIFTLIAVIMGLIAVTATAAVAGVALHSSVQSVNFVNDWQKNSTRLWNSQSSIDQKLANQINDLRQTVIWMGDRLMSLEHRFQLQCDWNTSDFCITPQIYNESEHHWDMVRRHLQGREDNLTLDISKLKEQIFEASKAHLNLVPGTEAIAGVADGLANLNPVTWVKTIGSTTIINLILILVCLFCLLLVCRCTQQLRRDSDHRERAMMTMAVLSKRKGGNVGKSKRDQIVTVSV
Test: BLI; Octet R8; one protein biotinylated and immobilised on an SA chip (which one is not said), the other in twofold dilutions in PBST; association 200 s, dissociation 300 s
Conditions: both partners purified

B1: nonglycosylated CD3ε protein (recombinant) (receptor)
chain: DGNEEMGGITQTPYKVSISGTTVILTCPQYPGSEILWQHNDKNIGGDEDDKNIGSDEDHLSLKEFSELEQSGYYVCYPRGSKPEDANFYLYLRARVCENCMEMDVMSVATIVIVDICITGGLLLLVYYWSKNRKAKAKPVTRGAGAGGRQRGQNKERPPPVPNPDYEPIRKGQRDLYSGLNQRRI
notes: CD3ε; nothing is said of the recombinant protein itself; source: prokaryotic expression system, purified
Kd: 67.7 nM
